Test results reported in US10155733B2, “N-aralkylcarbonyl-piperazine and -homopiperazine compounds and personal care compositions comprising the same” (Conopco, Inc., priority 2015, dated 2018).

Assay: pH measurements of test compound solutions
Assay type: physicochemical
Details: for Measured pH of solution: 79 mM (equimolar) in isopropyl alcohol/water, 22° C.; for pH of a 2.5% solution: 2.5% solution (weight/volume); for pH reduction relative to non-amido compound: equimolar solutions, versus non-amido piperazine (14) or homopiperazine (15); for pH unit decrease relative to corresponding secondary amine compound: secondary amine to tertiary amine, equimolar / 2.5% solutions
Procedure: Equimolar amounts of test compounds were used instead of weight % amounts to ensure a fair (molar-basis) comparison between test compounds. […] The pH of all test solutions was measured @ 22° C. using a Corning pH meter model 430 with a flat surface combo w/RJ electrode. The pH meter was calibrated using standard pH 7 & 12 buffers.

Row | Compound | Measured pH of solution | pH of a 2.5% solution | pH reduction relative to non-amido compound | pH unit decrease relative to corresponding secondary amine compound
1 | CN1CCN(C(=O)C(O)(c2ccccc2)C2CCCC2)CC1 (centres unmarked) | 8.5 | 8.5 | 2.5 pH units | 1.5 pH units
2 | CN1CCCN(C(=O)C(O)(c2ccccc2)C2CCCC2)CC1 (centres unmarked) | 9.0 | 9.0 | 2.45 pH units | 0.9 pH units
